This assay deals with wild-type AR (WT-AR). Put plainly: PSA luciferase reporter, WT-AR in 293 cells. The format is cell-based. Particulars: FBS conditions, 16 hours, Fig.2G.

Turning to `CNC(=O)c1ccc(N2C(=S)N(c3ccc(C#N)c(C(F)(F)F)c3)C(=O)C2(C)C)cc1F` [Enza, enzalutamide], the WT-AR transcriptional activity result is listed as “suppress”.
